One may read the inhibition as the drop in the measured response relative to a control, in per cent.

Protein sequences, listed by entry. Tags and fused reporters are not part of them.
UniProt O14786, whole entry, looked up: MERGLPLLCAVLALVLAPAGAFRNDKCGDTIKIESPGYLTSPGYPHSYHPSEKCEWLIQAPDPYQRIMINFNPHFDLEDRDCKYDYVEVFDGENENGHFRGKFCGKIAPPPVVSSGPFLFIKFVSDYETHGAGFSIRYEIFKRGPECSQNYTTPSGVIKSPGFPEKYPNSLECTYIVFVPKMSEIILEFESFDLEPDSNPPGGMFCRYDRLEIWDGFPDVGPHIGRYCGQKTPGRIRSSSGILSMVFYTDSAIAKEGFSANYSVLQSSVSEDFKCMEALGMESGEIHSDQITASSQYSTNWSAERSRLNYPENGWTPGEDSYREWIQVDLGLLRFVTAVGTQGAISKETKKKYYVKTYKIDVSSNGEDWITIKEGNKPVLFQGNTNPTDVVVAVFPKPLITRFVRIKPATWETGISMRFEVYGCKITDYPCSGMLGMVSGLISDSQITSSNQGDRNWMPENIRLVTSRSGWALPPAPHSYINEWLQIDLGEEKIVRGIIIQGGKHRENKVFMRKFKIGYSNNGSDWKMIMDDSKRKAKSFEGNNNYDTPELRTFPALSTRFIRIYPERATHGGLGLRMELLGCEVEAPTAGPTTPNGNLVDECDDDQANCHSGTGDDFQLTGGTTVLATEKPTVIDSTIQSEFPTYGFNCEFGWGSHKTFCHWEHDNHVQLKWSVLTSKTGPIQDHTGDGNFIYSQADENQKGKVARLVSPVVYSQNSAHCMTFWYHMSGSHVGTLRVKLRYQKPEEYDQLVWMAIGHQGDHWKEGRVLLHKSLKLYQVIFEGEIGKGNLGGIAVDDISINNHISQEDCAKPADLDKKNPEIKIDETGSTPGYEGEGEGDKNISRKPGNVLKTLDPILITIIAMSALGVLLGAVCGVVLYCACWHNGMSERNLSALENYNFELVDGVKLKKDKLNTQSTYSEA

This is a selection; strong and weak results do not stand in their true shares. Activity calls are given as the source filed them.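 Rule for the calls: active = inhibition or corrected inhibition above about 18%, plus a signal ratio from 0.5 to 1.5 (limit read from the data, passing the limit was not always enough); inactive = the rest.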

In this assay the target is Neuropilin-1 (Homo sapiens) (UniProt O14786). As to the kind of experiment: NRP-1/CendR peptide interaction modulators – biochemical, fluorescence polarization, uHTS, primary screen (AID 602438). To be noted: FAM-RPARPAR peptide binding to NRP-1, fluorescence polarization; at 25 µM; stronger effect = higher value. In general terms: Polarisation of emitted light reports the rotation of a fluorescent probe.
As to `O=C(OC1CN2CCC1CC2)c1cccc(Cl)c1` (stereo not drawn), the inhibition was inactive: -8.7%.
On to `C(Cc1nn[nH]n1)Cc1nn[nH]n1`, for which the inhibition was inactive: -9.9%.
Take `Nc1ccc([As](=O)(O)c2ccc([N+](=O)[O-])cc2)cc1`: the inhibition was inactive: 20.7%.
Take `O=[As](O)(c1ccccc1)c1ccc(O)cc1`: the inhibition was inactive: -3.4%.
Regarding `CC(=O)NC(SC(=S)N(C)C)C(Cl)(Cl)Cl` (stereo not drawn), the inhibition was inactive: -2.2%.
Then `O=[N+]([O-])c1ncn(CCn2cnc([N+](=O)[O-])n2)n1`, with inactive: -3.3%.
Then `O=[N+]([O-])c1ccc(O)c(/C=N/Nc2ccc([N+](=O)[O-])cc2[N+](=O)[O-])c1`, with inactive: 3.9%.
Consider `O=P(Nc1nc2ccccc2s1)(c1ccccc1)c1ccccc1`, for which the inhibition is inactive: -0.7%.
For `C[C@H]1OP(=O)(Oc2ccccc2)[C@H](O)[C@H](O)[C@H]1N=[N+]=[N-]` (stereo partly drawn), the inhibition was inactive: -4.7%.
On to `CN(C)C1(CNC(=O)c2ccc(Cl)c(S(N)(=O)=O)c2)CCCCC1`, for which the inhibition is inactive: -5.2%.
In the case of `O=P(Nc1ccccn1)(c1ccc(Br)cc1)c1ccc(Br)cc1`, the inhibition is inactive: -7.2%.
On to `COc1ccc(N)c([N+](=O)[O-])c1[N+](=O)[O-]`, for which the inhibition is inactive: 22.4%.
Then `Nc1ccc(CCCCOc2ccccc2)cc1`, with inactive: 15.4%.
As for `c1nnnn1CCn1cnnn1`, the inhibition was inactive: -9.5%.
Take `O=P(Nc1nccs1)(c1ccccc1)c1ccccc1`: the inhibition was inactive: 0.2%.
For the compound `CC(C)C(=O)NC(Sc1ccccc1)C(Cl)(Cl)Cl` (stereo not drawn), the inhibition is inactive: -2.9%.
Then `CC(=O)Nc1ccc([As](=O)(O)O)c(O)c1`, with inactive: -4.6%.
On to `CC(=O)Nc1ccc(Oc2c([N+](=O)[O-])cc([N+](=O)[O-])cc2[N+](=O)[O-])cc1`, for which the inhibition is inactive: 8.5%.
Turning to `Cc1ccccc1CN(C)C(=O)COC(=O)C(O)(c1ccccc1)c1ccccc1`, the inhibition was inactive: 5.3%.
Then `C[C@H]1OP(=O)(Oc2ccccc2)C[C@@H]2O[C@@H]21` (stereo partly drawn), with inactive: -7.8%; and `C[C@@H]1C=CCP(=O)(Oc2ccccc2)O1` (stereo partly drawn), with inactive: 15.5%.
Regarding `CC(=O)c1ccc(N2CC2c2ccncc2)cc1` (stereo not drawn), the inhibition was inactive: 11.5%.
Regarding `N#C/C(=C\c1ccc(N(CCBr)CCBr)cc1)C(N)=O`, the inhibition was inactive: -27%.
On to `COC(=O)C1(C)COP(=O)(NCc2ccccc2)OC1` (stereo not drawn), for which the inhibition is inactive: 12.4%.
With `CC(C)(C)C(=O)NC(Sc1ccccc1)C(Cl)(Cl)Cl` (stereo not drawn), the inhibition was inactive: -3.7%.
On to `CCc1cc(O)c([N+](=O)[O-])c(C)c1[N+](=O)[O-]`, for which the inhibition is inactive: 2%.
Consider `O=P1(Nc2nc3ccc(Cl)cc3s2)COc2ccccc2O1` (stereo not drawn), for which the inhibition was inactive: 4.9%.
Then `CCOc1ccc(C2=NCC(CBr)S2)cc1` (stereo not drawn), with inactive: -2.4%; and `CC(NC(=O)COC(=O)C(O)(c1ccccc1)c1ccccc1)c1ccccc1` (stereo not drawn), with inactive: 5%.
Then `Cc1ccccc1OP(=O)(Nc1ccccn1)Oc1ccccc1C`, with inactive: 7.9%; and `O=c1c2cc([N+](=O)[O-])ccc2[nH]c2c([N+](=O)[O-])cc([N+](=O)[O-])cc12`, with inactive: -82.3%.
Consider `CN(C)C(=O)Oc1noc2ccccc12`, for which the inhibition is inactive: 11.7%.
Turning to `O=C(OC1CN2CCC1CC2)c1ccccc1` (stereo not drawn), the inhibition was inactive: -1%.
Turning to `CCC(=O)N1C2C3N(C(=O)CC)C1C1N(C(=O)CC)C(C(N1C(=O)CC)N3C(=O)CC)N2C(=O)CC`, the inhibition is inactive: -8%.
Turning to `COC(=O)c1cc2c(s1)N=C(c1ccccc1)N(C)P2(=O)N1CCOCC1` (stereo not drawn), the inhibition was inactive: -1.8%.
Then `CC(=O)NC(SC(=S)N(CC(C)C)CC(C)C)C(Cl)(Cl)Cl` (stereo not drawn), with inactive: -5.7%; and `Cc1ccc(OP(=O)(Nc2ccccn2)Oc2ccc(C)cc2)cc1`, with inactive: 2.7%.
Consider `O=P1(N(CCCl)CCCl)OCCC2CCCCN21` (stereo not drawn), for which the inhibition is inactive: -1.2%.
Then `c1ccc(-c2nn[nH]n2)c(-c2nn[nH]n2)c1`, with inactive: -7.6%; and `Cc1ccc(NP(=O)(Oc2cccc(C)c2)Oc2cccc(C)c2)nc1`, with inactive: -7.6%.
Regarding `O=C(NC1CCS(=O)(=O)C1)NP(=S)(Oc1ccccc1)Oc1ccccc1` (stereo not drawn), the inhibition is inactive: 0.9%.
Turning to `CCNC(=S)/N=C(\N)N[N+](=O)[O-]`, the inhibition was inactive: -1.6%.
Then `Nc1cccc2ccc([As](=O)(O)O)cc12`, with inactive: 2.6%.
Take `CCN(N=Nc1nonc1N)c1nonc1N`: the inhibition is active: 27.8%.
Then `Cc1cc(SC(NC(=O)c2ccc(F)cc2)C(Cl)(Cl)Cl)ncn1` (stereo not drawn), with inactive: -4.3%.
Consider `CCOP(=O)(Nc1ccccc1)OCC`, for which the inhibition was inactive: 9.3%.
As to `CN(C(=O)Cc1ccc(Cl)c(Cl)c1)[C@H]1CCCC[C@@H]1N1CCCC1`, the inhibition is inactive: -3.4%.
In the case of `Cc1ccc(NP(=O)(Oc2ccccc2F)Oc2ccccc2F)nc1`, the inhibition was inactive: 3%.
Then `O=P(Nc1nc2ccc(Cl)cc2s1)(c1ccccc1)c1ccccc1`, with inactive: -7.4%; and `CN(C)P(=O)(N(C)C)n1c(Nc2ccccc2)nnc1-c1ccccc1`, with inactive: 0.1%.
Regarding `CC(=O)Nc1ccc([As](=O)(O)O)cc1`, the inhibition was inactive: 0.7%.
For `O=C(O)c1ccccc1[As](=O)(O)O`, the inhibition was inactive: 0.1%.
For `CCCC1OP(N)(=O)OCC1CC` (stereo not drawn), the inhibition is inactive: 0.3%.
Regarding `O=[N+]([O-])C1C(O)C(O)C([N+](=O)[O-])C(O)C1O` (stereo not drawn), the inhibition is inactive: -7%.
Take `Oc1ccccc1CNc1ccccn1`: the inhibition is inactive: -2.2%.
As for `O=C(NC(Sc1ccncn1)C(Cl)(Cl)Cl)c1ccccc1` (stereo not drawn), the inhibition is inactive: 8%.
For the compound `Nc1cc(N)c2nonc2c1[N+](=O)[O-]`, the inhibition was inactive: -3.8%.
Then `CC(C)CC(=O)NC(Sc1ccc(Cl)cc1)C(Cl)(Cl)Cl` (stereo not drawn), with inactive: -3.6%; and `CN1CCCC(OC(=O)C(c2ccccc2)c2ccccc2)C1` (stereo not drawn), with inactive: 2.9%.
Then `Clc1ccc(Cl)c(NC2=NCC(CBr)S2)c1` (stereo not drawn), with inactive: 2.7%.
In the case of `COc1ccccc1OP(=O)(Nc1ccc(C)cn1)Oc1ccccc1OC`, the inhibition is inactive: 10.8%.
Take `Cc1ccc(OP(=O)(Nc2nccs2)Oc2ccc(C)cc2)cc1`: the inhibition is inactive: -2.9%.
As for `CN(C(=O)Cc1ccc(Cl)c(Cl)c1)[C@H]1CCCC[C@H]1N1CCCC1`, the inhibition is inactive: -8.2%.
Take `Cc1ccc(N/C(=N/P(=O)(N2CCOCC2)N2CCOCC2)N2CCOCC2)cc1`: the inhibition is inactive: -9.5%.
As to `NC(=O)c1cc([N+](=O)[O-])cc([N+](=O)[O-])c1N`, the inhibition was inactive: 2.5%.
For `CC1CCN(C(=O)Oc2c(Cl)cc(Cl)c3cccnc23)CC1`, the inhibition is inactive: -2.5%.
On to `c1cc(-c2nn[nH]n2)ccc1-c1nn[nH]n1`, for which the inhibition was inactive: -3.2%.
As for `CC(C)c1nc(Nc2ccccc2)n(P(=O)(N(C)C)N(C)C)n1`, the inhibition was inactive: 2.8%.
Then `CC(C)=N/N=C(\N)N[N+](=O)[O-]`, with inactive: 9.9%.
With `CN(C)C(=O)OCCc1n(C)cc[n+]1C`, the inhibition was inactive: -1.1%.
Regarding `CCN(/C(=N/P(=O)(N1CCOCC1)N1CCOCC1)N1CCOCC1)c1ccc(OC)cc1`, the inhibition is inactive: 7.8%.
`Nc1ccc([As](=O)(O)c2ccc(N)cc2)cc1`: the inhibition is inactive: 0.1%.
In the case of `C[N+]1=C2C=CC=CC=C2SC12C([N+](=O)[O-])=CC([N+](=O)[O-])=C[C-]2[N+](=O)[O-]` (stereo not drawn), the inhibition was inactive: 19.2%.
Take `Cc1ccc(NP(=O)(Oc2ccccc2)Oc2ccccc2)nc1`: the inhibition was inactive: -11%.
Take `O=[N+]([O-])c1cc([N+](=O)[O-])c(CCNc2ccccc2)c([N+](=O)[O-])c1`: the inhibition is inactive: 12.2%.
Then `CCc1nc2c(n1)c1c(non1O)c1c2no[n+]1[O-]`, with inactive: -5.9%.
For `CC(=O)N1C2C3N(C(C)=O)C1C1N(C(C)=O)C(C(N1C(C)=O)N3C(C)=O)N2C(C)=O`, the inhibition is inactive: 13.3%.
As to `O=[N+]([O-])c1cccc2n[nH]nc12`, the inhibition was inactive: 11.6%.
For the compound `COc1ccc(C2=NCC(CBr)S2)cc1` (stereo not drawn), the inhibition is inactive: 0.5%.
For the compound `O=C(O)CNc1ccc([As](=O)(O)O)cc1`, the inhibition was inactive: 2.4%.
On to `COC(=O)C1(C)COP(=O)(Nc2ccccc2)OC1` (stereo not drawn), for which the inhibition was inactive: 6%.
Then `O=[N+]([O-])c1cccc(NC2=NCC(CBr)S2)c1` (stereo not drawn), with inactive: 3%; and `O=[N+]([O-])c1ncn(CCn2ncnc2[N+](=O)[O-])n1`, with inactive: 14%.
`CC(C)(C)C(=O)NC(Sc1ccncn1)C(Cl)(Cl)Cl` (stereo not drawn): the inhibition is inactive: 10.8%.
Then `O=C(Nc1cc([As](=O)(O)O)ccc1O)c1ccccc1`, with inactive: 3.4%; and `O=P1(N(CCCl)CCCl)OCCCS1` (stereo not drawn), with inactive: 19.8%; and `Cc1cc(SC(NC=O)C(Cl)(Cl)Cl)ncn1` (stereo not drawn), with inactive: -6.5%.
Regarding `O=P(Nc1ccccn1)(c1cccc2ccccc12)c1cccc2ccccc12`, the inhibition was inactive: 6.7%.
Consider `O=[N+]([O-])c1ccc(Nc2ccc(Oc3ccc([N+](=O)[O-])cc3[N+](=O)[O-])cc2)c([N+](=O)[O-])c1`, for which the inhibition was inactive: 6.2%.
Then `CCOC(=O)Nc1cccc([As](=O)(O)O)c1`, with inactive: 7.7%; and `COP(=O)(OC)N1CC1c1ccccc1` (stereo not drawn), with inactive: -14.7%.
As for `CCCCOc1ccc(C(=O)NCC2(N3CCCCC3)CCCCC2)cc1OC`, the inhibition is inactive: -5%.
On to `Cc1cc(SC(NC(=O)c2ccccc2)C(Cl)(Cl)Cl)nc(C(C)C)n1` (stereo not drawn), for which the inhibition was inactive: 9.3%.
Then `O=C(O)C(O)c1ccc(N(CCCl)CCCl)cc1` (stereo not drawn), with inactive: -0.4%; and `CCOC(=O)Nc1ccc([As](=O)(O)O)c(O)c1`, with inactive: -4.9%.
Then `CC1CCNP(=O)(N(CCCl)CCCl)O1` (stereo not drawn), with inactive: 0.2%; and `CCC(C)N(CC(C)C)C(=S)SC(NC(C)=O)C(Cl)(Cl)Cl` (stereo not drawn), with inactive: 7.5%.
In the case of `O=C(OC1CN2CCC1CC2)c1cccc([N+](=O)[O-])c1` (stereo not drawn), the inhibition is inactive: -0.3%.
Take `CSc1ccc(Nc2c([N+](=O)[O-])cc([N+](=O)[O-])cc2[N+](=O)[O-])cc1`: the inhibition was inactive: 6.9%.
Turning to `CCOC(=O)c1ccc(NC(=O)C(C)(CCl)SC)cc1` (stereo not drawn), the inhibition is active: 30.1%.
Regarding `O=C(O)C(=O)c1ccc(N(CCCl)CCCl)cc1`, the inhibition was inactive: 4.8%.
With `O=C(COc1ccccc1)OC1CN2CCC1CC2` (stereo not drawn), the inhibition was inactive: 4.8%.
On to `O=C(Nc1ccncc1[N+](=O)[O-])c1ccc([N+](=O)[O-])cc1[N+](=O)[O-]`, for which the inhibition is inactive: 4.2%.

Source of the values: PubChem BioAssay AID602438 (Sanford-Burnham Center for Chemical Genomics, 2012).
